US5948798A, “Pyridiniminyl-1,2-benzisoxazoles and -benzisothiazoles” (Hoechst Marion Roussel, Inc., priority 1997, dated 1999)
pIC50: −log10 of the molar value.

Protein sequences, listed by entry. Tags and fused reporters are not part of them.
UniProt P19643, whole entry: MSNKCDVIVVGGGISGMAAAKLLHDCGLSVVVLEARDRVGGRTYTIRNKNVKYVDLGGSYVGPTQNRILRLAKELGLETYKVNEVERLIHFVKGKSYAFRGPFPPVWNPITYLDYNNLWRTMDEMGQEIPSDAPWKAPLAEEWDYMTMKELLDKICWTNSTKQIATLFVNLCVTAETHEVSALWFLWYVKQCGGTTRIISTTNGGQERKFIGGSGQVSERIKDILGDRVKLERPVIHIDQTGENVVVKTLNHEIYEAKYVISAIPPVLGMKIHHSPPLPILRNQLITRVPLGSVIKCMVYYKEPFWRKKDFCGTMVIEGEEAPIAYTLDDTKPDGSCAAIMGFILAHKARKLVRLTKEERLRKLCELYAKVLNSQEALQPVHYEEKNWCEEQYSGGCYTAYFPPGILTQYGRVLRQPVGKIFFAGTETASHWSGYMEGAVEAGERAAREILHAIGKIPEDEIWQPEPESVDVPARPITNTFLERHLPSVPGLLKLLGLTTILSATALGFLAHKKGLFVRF

Molecular target: T1, Monoamine Oxidase B (Rattus norvegicus, UniProt P19643)
T1 construct: serves as the tissue source for mitochondrial monoamine oxidase; from tissue; host or cells: male Wistar rat whole brain minus cerebellum, 18,000 g pellet (P2)
Assay: in vitro inhibition of monoamine oxidase assay (monoamine oxidase B)
Assay type: biochemical, rat (male Wistar, whole brain minus cerebellum)
Details: rat brain mitochondria, [14C]-phenethylamine 200 μM, pH 7.4, 37° C., 30 min; log-probit
Experimental: The pyridiniminyl-1,2-benzisoxazoles and -benzisothiazoles of the present invention are also useful as agents for treating depression. […] In this assay, a modification of an assay described by M. V. Kindt, et al., Europ. J. Pharmacol. 146: 313-318 1988.
The following reagents are prepared:
1. Phosphate buffer (0.5M), pH 7.4;
134.4 g dibasic sodium phosphate heptahydrate q.s. to 1 liter in distilled water (A) 17.3 g monobasic sodium phosphate q.s. to 250 mL in distilled water (B) Adjust pH of A to 7.4 by slowly adding B (volumes as needed)
Dilute 1:10 in distilled water (0.05M phosphate buffer, pH 7.4)
2. 0.25M Sucrose (phosphate buffered):
21.4 g sucrose, q.s. to 250 mL with 0.05M phosphate buffer
4. Substrate for monoamine oxidase-B a. -phenethylamine is obtained from Sigma Chemical Company. A 5 mM stock solution is made up in 0.01 N-hydrochloride. The solution is used to dilute the specific activity of the [^14 C]- --phenethylamine. […]
b. --[ethyl-1-^14 C]-phenethylamine hydrochloride (40-50 mCi/mmol) is obtained from New England Nuclear. c. […]
Tubes are preincubated for 15 minutes at 37° C. and the assay is started by adding 40 μl of combined substrate ([^3 H]-5-hydroxytryptamine and [^14 C]- -phenethylamine) at 15 second intervals. […] Tissue blank values are determined by adding the acid before the radioactive substrate. […] IC50 values are determined by log-probit analysis.

`COc1cc(Br)c2oc(C3CCNCC3)cc2c1` [brofaromine, reference compound] gave a pIC50 of 4.63.
